In published antibiotic growth screens (doi:10.1038/s41589-023-01349-8):
Some of the results follow.

Each molecule was assayed on A. baumannii ATCC 17978 (assay: relative growth (fraction of control); higher = less inhibition). Conditions: 50 µM.
COc1cc2ccc(=O)oc2c(OC)c1OC showed a relative growth of 1.03.
NC(N)=Nc1nc(CSCC/C(N)=N\S(N)(=O)=O)cs1 was tested, and the relative growth was 0.954.
O=C(O)CCC(=O)O.O=C(O[C@H]1CN2CCC1CC2)N1CCc2ccccc2[C@@H]1c1ccccc1 was tested, and the relative growth was 0.825.
With CCN(CC)CCNC(=O)c1cc(S(C)(=O)=O)ccc1OC.Cl the relative growth was 1.01.
CC(C)Cn1c(N)cc(=O)n(C)c1=O gave a relative growth of 0.887.
Molecule CC(C)c1ccc2c(ccc[n+]2C)c1 has a relative growth of 0.951.
O=C(O[C@@H]1Cc2c(O)cc(O)cc2O[C@@H]1c1cc(O)c(O)c2c(=O)c(O)cc([C@H]3Oc4cc(O)cc(O)c4C[C@H]3O)c-2c1)c1cc(O)c(O)c(O)c1 was tested, and the relative growth was 0.737.
Work on COCCn1c(=NN)[nH]c2ccsc2c1=O yielded a relative growth of 0.993.
C#CCCCCCCCCCCCC(O)CC(O)CO (stereo unspecified) gave a relative growth of 0.839.
With O=C(N/N=C/c1ccc(CO)o1)c1ccccn1 the relative growth was 1.03.
For Nc1nc(=S)c2ncn([C@@H]3O[C@H](CO)[C@@H](O)[C@H]3O)c2[nH]1, the relative growth was 0.944.
With COc1cc(OC)c(CN(CC#CCOC(=O)NCCCCCC(=O)NO)S(=O)(=O)c2ccccc2[N+](=O)[O-])c(OC)c1 the relative growth was 1.07.
In the case of CO[C@@H](CN(C)C(=O)c1ccc2c(c1)OCO2)[C@@H](C)CN([C@H](C)CO)S(=O)(=O)c1ccc(Cl)cc1, the relative growth was 0.906.
For CC(C)Cc1ccc([C@@H](C)C(=O)Nc2ccc(Cl)cc2)cc1, the relative growth was 1.01.
With Cc1cc(SCc2ccc(F)cc2)c(C)cc1Cl the relative growth was 0.94.
CC(C)C(=O)NNC(=O)c1ccccc1O was tested, and the relative growth was 1.09.
With COc1ccc(OCC(=O)NCC(=O)O)cc1 the relative growth was 1.03.
For COCC(=O)N[C@H]1C=C[C@@H](CC(=O)N2CCCCC2)O[C@H]1CO, the relative growth was 1.06.
O=C(C[C@H]1C=C[C@H](NS(=O)(=O)c2ccc(F)cc2)[C@H](CO)O1)NCc1ccc(Cl)c(Cl)c1 showed a relative growth of 0.962.
O=c1cc(-c2ccc(O)cc2)oc2cc(O)cc(O)c12 showed a relative growth of 0.947.
In the case of NCCC(=O)NCCc1cnc[nH]1, the relative growth was 0.813.
C[C@@H]1CN([C@@H](C)CO)S(=O)(=O)c2ccc(C#Cc3ccc(F)cc3)cc2O[C@@H]1CN(C)S(=O)(=O)c1cn(C)cn1 showed a relative growth of 1.
CC(=O)NCCCC[C@@H]1NC(=O)[C@@H]2C[C@H](C(=O)NCCCCN(C)C)[C@H](c3ccc(O)cc3)N2C1=O gave a relative growth of 1.01.
With CS(=O)(=O)c1nnnn1-c1ccc2c(c1)OCO2 the relative growth was 1.08.
C[C@@H]1CN([C@H](C)CO)S(=O)(=O)c2ccc(C#CC3CC3)cc2O[C@@H]1CN(C)C(=O)Cc1ccncc1 gave a relative growth of 1.02.
O=C(C[C@H]1C[C@H]2c3cc(NC(=O)c4ccc5c(c4)OCO5)ccc3O[C@H]2[C@H](CO)O1)NCc1ccccn1 was tested, and the relative growth was 1.1.
C[C@H](CO)N1C[C@H](C)[C@@H](CN(C)C(=O)Cc2ccncc2)Oc2ncc(C#CC3(O)CCCC3)cc2C1=O gave a relative growth of 1.08.
With O=C(C[C@@H]1C[C@H]2c3cc(NC(=O)Cc4ccncc4)ccc3O[C@H]2[C@H](CO)O1)NCc1ccc2c(c1)OCO2 the relative growth was 0.954.
With CC(C)NC(=O)[C@@H]1c2ccccc2C(=O)N(Cc2cc(F)cc(C(F)(F)F)c2)[C@H]1c1ccc(CO)cc1 the relative growth was 0.873.
CCN1CCC[C@@H]1CN1CNC(=S)NC1 gave a relative growth of 0.892.
NNC(=O)c1ccccn1 gave a relative growth of 1.01.
COC(=O)c1cn(CC(N)=O)c2ccccc12 gave a relative growth of 1.12.
COCCOC(=O)N1C(=O)[C@@]2(c3cc(C#Cc4ccc(OC)cc4)ccc31)[C@H](C(=O)NC[C@H](O)c1ccccc1)[C@H]1C(=O)O[C@H](c3ccccc3)[C@H](c3ccccc3)N1[C@@H]2c1ccc(O)cc1 was tested, and the relative growth was 0.85.
With Cc1nn(-c2nc3c(c(=O)n(CC(N)=O)c(=O)n3C)n2C)c(C)c1C the relative growth was 1.77.
Work on CO[C@H]1CN(C)C(=O)c2ccc(NC(=O)Nc3ccc(Cl)cc3)cc2OC[C@@H](C)N(C(=O)Nc2c(C)noc2C)C[C@H]1C yielded a relative growth of 1.01.
In the case of O=C(CCCCCC(=O)N/N=C/[C@H](O)[C@@H](O)[C@H](O)[C@H](O)CO[C@H]1O[C@H](CO)[C@H](O)[C@H](O)[C@H]1O)NO, the relative growth was 0.91.
CC(N/C(=N/C#N)Nc1ccncc1)C(C)(C)C (stereo unspecified) was tested, and the relative growth was 1.05.
Work on CC(=O)OCC(COC(C)=O)OC(C)=O yielded a relative growth of 1.03.
For CCCCCCCCCCCCCCCC(=O)OCC(O)[C@H]1OC(=O)C(O)=C1O (stereo partly specified), the relative growth was 1.23.
C[C@@H]1COCCC(=O)N1 was tested, and the relative growth was 1.12.
Work on CC1CN(c2c(F)c(N)c3c(=O)c(C(=O)O)cn(C4CC4)c3c2F)C[C@H](C)N1 (stereo partly specified) yielded a relative growth of 0.172.
c1ccc(-c2[nH]nc3ccccc23)cc1 was tested, and the relative growth was 0.925.
O=c1ncccn1[C@@H]1O[C@H](CO)[C@@H](O)[C@H]1O gave a relative growth of 0.999.
O=C(C[C@H]1C=C[C@H](NC(=O)Cc2ccccn2)[C@@H](CO)O1)NCCc1ccncc1 was tested, and the relative growth was 1.05.
In the case of O=C(C[C@H]1CC[C@H]2[C@@H](COC[C@@H](O)CN2C(=O)Nc2cccc(F)c2)O1)NCCCN1CCOCC1, the relative growth was 0.997.
Cc1cc(C)c(S(N)(=O)=O)cc1S(N)(=O)=O showed a relative growth of 0.929.
In the case of NC(CO)(CO)CO, the relative growth was 0.881.
In the case of O=c1[nH]cnc2c1ncn2C1O[C@H](CO)[C@@H](O)[C@H]1O (stereo partly specified), the relative growth was 0.985.
For COc1ccc([C@H]2COc3c(ccc(O)c3OC)C2)c(OC)c1O, the relative growth was 0.857.
Molecule CN1CCN(C(=O)C[C@H]2CC[C@@H]3[C@H](COC[C@@H](O)CN3Cc3ccc4c(c3)OCO4)O2)CC1 has a relative growth of 0.858.
COc1ccc2c(c1)OCc1c-2oc2cc(OC)ccc12 gave a relative growth of 1.04.
CCOc1nc2ccccc2c(=O)n1CCO was tested, and the relative growth was 1.06.
Molecule Cc1ccc(S(=O)(=O)NCCC(=O)O)cc1 has a relative growth of 1.05.
Work on C(=N\c1ccccc1)/c1ccc(Oc2ccccc2)cc1 yielded a relative growth of 1.15.
C[C@@H]1CCCCO[C@@H](CN(C)Cc2ccc3c(c2)OCO3)[C@@H](C)CN([C@H](C)CO)C(=O)c2cc(NS(=O)(=O)c3cccs3)ccc2O1 gave a relative growth of 1.06.
In the case of COCC(=O)N1C[C@H](C)[C@@H](OC)CN(C)C(=O)c2ccc(NC(=O)c3cc(C)on3)cc2OC[C@H]1C, the relative growth was 1.2.
In the case of C[C@@H](NC(=O)C[C@@H]1CC[C@H](NC(=O)CN2CCOCC2)[C@@H](CO)O1)c1ccccc1, the relative growth was 0.923.
With COc1nc(=NC(=O)NS(=O)(=O)Nc2cccc3cccnc23)nc(OC)[nH]1 the relative growth was 0.936.
Molecule CC(C)NC(=O)[C@@H](N)c1ccccc1 has a relative growth of 1.04.
NC(=O)N1c2ccccc2C=Cc2ccccc21 gave a relative growth of 0.859.
C[C@H]1C(=O)CCC2[C@]3(C)CC[C@@]4(C)C5CC(C)(C)CC[C@]5(C)CC[C@]4(C)C3CC[C@@]21C (stereo partly specified) showed a relative growth of 0.904.
